Values of other authors, collected in PMC9895975, “Self-association of the glycopeptide antibiotic teicoplanin A2 in aqueous solution studied by molecular hydrodynamics” (Scientific Reports, 2023).

Key:
[1] = intravenous injection; also printed as 10 mg/L; cited from earlier work
[2] = cited from earlier work
[3] = reversible, above a similar concentration; cited from earlier work
Text: There are some similarities with another “last line of defence” glycopeptide antibiotic vancomycin[33],[55] […] On the other hand, teicoplanin with its higher degree of glycosylation (two residues in vancomycin versus three residues in teicoplanin) and the lipid chains attached to one of the glcNAc residue self-associates to give a much larger 18–19mer structure in solution, a structure which is broken by the hydrogen bond and ion ...

| Substance | serum concentration in the clinical setting [1] | penetration into human aqueous humour below the cornea ([2]; 10 mg/mL eye drops) | penetration into the aqueous humour ([2]; subconjunctival injection (approximately 0.5 mL) of 25 mg) | self-associative behaviour in solution [3] |
| --- | --- | --- | --- | --- |
| teicoplanin A2 | ~ 10 μg/mL | little penetration | no penetration |  |
| vancomycin |  |  |  | monomer–dimer only |
